Earlier results, collected in patent US20110319467A1, “Absorption Enhancement of Statins and Omega Fatty Acids” (priority 2010, published 2011).

Conditions: single emulsifier

tocopheryl polyethylene glycol succinate
HLB value: about 13
